Bounds are passed on as bounds.

The chains behind the UniProt entries cited, without tags or fusion partners. Where a name states a change or a piece, a line headed by the entry shows the natural chain unless it says otherwise.
UniProt O60658: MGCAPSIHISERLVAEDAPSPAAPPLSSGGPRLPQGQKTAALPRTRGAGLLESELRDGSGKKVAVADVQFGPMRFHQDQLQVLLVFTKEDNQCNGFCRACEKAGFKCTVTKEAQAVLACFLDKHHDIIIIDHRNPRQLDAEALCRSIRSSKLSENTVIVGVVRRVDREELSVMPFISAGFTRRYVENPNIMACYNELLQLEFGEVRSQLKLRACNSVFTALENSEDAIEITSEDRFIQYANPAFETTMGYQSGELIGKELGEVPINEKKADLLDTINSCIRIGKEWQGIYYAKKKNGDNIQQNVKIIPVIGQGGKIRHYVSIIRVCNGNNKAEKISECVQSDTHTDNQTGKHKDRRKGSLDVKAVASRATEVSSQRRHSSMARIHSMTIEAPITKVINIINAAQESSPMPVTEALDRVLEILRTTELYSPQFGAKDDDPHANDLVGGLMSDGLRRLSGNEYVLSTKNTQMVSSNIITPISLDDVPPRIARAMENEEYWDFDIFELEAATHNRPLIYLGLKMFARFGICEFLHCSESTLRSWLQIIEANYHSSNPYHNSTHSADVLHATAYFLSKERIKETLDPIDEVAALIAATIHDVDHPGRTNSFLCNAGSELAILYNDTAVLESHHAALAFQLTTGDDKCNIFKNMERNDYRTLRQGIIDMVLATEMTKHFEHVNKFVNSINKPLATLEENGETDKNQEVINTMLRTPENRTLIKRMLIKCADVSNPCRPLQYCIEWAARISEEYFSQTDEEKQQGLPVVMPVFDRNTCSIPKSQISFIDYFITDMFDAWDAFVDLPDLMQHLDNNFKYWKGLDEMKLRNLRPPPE
UniProt Q13946: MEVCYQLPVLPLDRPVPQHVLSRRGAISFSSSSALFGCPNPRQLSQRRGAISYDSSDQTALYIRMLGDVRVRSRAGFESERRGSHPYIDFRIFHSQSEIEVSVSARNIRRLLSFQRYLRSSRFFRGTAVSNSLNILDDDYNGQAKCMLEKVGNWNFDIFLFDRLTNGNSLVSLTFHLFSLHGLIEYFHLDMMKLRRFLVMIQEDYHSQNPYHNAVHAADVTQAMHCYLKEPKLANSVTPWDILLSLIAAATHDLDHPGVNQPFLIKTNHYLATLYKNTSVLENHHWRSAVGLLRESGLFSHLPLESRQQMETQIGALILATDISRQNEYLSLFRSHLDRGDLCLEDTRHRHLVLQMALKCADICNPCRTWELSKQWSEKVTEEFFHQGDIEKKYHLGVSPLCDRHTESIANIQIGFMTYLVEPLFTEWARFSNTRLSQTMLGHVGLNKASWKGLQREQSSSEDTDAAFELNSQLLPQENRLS
UniProt Q9HCR9: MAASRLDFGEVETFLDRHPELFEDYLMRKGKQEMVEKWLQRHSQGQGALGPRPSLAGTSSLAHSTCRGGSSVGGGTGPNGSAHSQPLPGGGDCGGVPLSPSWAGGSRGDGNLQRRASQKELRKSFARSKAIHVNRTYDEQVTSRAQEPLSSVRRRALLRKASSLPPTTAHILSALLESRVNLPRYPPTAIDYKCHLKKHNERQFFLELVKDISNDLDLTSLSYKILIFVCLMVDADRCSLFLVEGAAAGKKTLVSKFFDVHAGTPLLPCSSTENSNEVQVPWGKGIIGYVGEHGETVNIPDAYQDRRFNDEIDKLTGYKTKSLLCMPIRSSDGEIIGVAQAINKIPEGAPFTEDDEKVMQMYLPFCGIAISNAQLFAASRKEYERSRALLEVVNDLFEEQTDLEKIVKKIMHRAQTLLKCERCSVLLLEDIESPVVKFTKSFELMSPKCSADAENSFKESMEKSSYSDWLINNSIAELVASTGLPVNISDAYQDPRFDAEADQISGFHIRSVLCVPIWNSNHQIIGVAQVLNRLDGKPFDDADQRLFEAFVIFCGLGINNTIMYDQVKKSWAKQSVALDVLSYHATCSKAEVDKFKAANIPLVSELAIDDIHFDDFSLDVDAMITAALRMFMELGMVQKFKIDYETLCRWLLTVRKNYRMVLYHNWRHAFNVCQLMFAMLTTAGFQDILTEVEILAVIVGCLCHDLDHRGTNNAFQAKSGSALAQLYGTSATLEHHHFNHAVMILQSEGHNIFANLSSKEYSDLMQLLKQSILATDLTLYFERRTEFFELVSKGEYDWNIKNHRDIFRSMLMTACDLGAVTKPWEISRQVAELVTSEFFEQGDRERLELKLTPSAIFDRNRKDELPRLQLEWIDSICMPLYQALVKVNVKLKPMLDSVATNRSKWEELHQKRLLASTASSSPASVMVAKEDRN
UniProt Q9Y233: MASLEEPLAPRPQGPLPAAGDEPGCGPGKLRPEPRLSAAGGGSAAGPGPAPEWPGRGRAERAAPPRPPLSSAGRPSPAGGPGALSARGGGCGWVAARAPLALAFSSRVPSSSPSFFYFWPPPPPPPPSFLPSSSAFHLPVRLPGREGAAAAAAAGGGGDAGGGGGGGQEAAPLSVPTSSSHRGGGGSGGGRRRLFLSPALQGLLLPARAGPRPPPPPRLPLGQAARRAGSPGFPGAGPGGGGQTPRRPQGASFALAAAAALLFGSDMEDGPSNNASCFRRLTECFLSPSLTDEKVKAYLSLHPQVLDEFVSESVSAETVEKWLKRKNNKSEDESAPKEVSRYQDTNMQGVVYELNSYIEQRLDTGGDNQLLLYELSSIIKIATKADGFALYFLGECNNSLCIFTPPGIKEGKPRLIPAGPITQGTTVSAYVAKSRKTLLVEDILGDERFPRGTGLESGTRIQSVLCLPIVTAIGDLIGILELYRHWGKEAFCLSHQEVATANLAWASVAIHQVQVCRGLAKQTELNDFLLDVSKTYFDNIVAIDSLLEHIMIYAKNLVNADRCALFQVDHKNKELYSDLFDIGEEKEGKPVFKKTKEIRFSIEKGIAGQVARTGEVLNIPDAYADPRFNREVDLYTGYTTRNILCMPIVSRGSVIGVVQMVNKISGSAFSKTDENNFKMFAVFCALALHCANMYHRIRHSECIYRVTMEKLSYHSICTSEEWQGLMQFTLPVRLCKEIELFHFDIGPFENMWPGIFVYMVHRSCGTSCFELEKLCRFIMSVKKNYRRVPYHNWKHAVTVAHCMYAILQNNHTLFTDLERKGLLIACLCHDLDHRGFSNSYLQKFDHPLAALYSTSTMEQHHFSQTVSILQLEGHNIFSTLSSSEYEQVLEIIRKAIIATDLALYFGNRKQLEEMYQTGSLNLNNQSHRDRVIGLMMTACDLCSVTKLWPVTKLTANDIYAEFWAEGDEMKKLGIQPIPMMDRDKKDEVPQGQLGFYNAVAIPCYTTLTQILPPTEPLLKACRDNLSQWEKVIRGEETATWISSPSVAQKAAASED

What all share (assay): In Vitro Enzyme Assay
Experiment [1] concerns the target High affinity cAMP-specific and IBMX-insensitive 3',5'-cyclic phosphodiesterase 8A (Homo sapiens, UniProt O60658).
In experiment [2] the target is cGMP-specific 3',5'-cyclic phosphodiesterase (Homo sapiens, UniProt O76074).
Experiment [3] concerns the target High affinity cAMP-specific 3',5'-cyclic phosphodiesterase 7A (Homo sapiens, UniProt Q13946).
For experiment [4], the target named is Dual 3',5'-cyclic-AMP and -GMP phosphodiesterase 11A (Homo sapiens, UniProt Q9HCR9).
Experiment [5] has as its target cAMP and cAMP-inhibited cGMP 3',5'-cyclic phosphodiesterase 10A (Homo sapiens, UniProt Q9Y233).

For orientation: IC50 means the concentration at which inhibition is half-maximal. Low values mean greater potency, high ones weaker potency. Turning to `O=c1nc2sc3ccccc3n2c(=O)n1-c1ccccc1`, the concentration for half-maximal inhibition (IC50) in experiment [1] and in experiment [2] was more than 100 µM in each case. `Cc1ccccc1Nc1ncnc2c1c(-c1ccccc1)cn2-c1ccc(F)cc1` registered a half-maximal inhibitory concentration (IC50) in experiment [3] of more than 100 µM. Consider `CCCCSc1nc2c(c(=O)n1-c1ccccc1)SCC2` [BC11-38-1], for which the concentration for half-maximal inhibition (IC50) in experiment [4] was 0.4 µM; in experiment [3], more than 100 µM; in experiment [2], more than 100 µM. For `CCC(C)Sc1nc2c(c(=O)n1-c1ccccc1)SCC2` (configuration not stated) [BC11-38-2], the figures for the 50% inhibitory concentration (IC50) in experiment [4] and in experiment [5] were 2.5 µM and 5 µM, respectively. `CCCSc1nc2c(c(=O)n1-c1ccc(C)cc1)SCC2` [BC11-38-3]: the IC50 in experiment [2] was more than 100 µM. On to `CCCSc1nc2c(c(=O)n1-c1ccccc1OC)SCC2` [BC11-38-4], for which the concentration for half-maximal inhibition (IC50) in experiment [3] was more than 100 µM. For the molecule `CCCSc1nc2c(c(=O)n1-c1ccccc1)SCC2` [BC11-38], the concentration for half-maximal inhibition (IC50) in experiment [1] and in experiment [2] was more than 100 µM each time.

(Values after BindingDB's records for doi:10.1016/j.chembiol.2011.12.010 (Boston College, 2012).)
